{"source": "patent US20210246128A1", "about": "“BICYCLE TOPOISOMERASE I INHIBITING COMPOUNDS, PROCESS FOR PREPARATION AND USE THEREOF” (Council of Scientific & Industrial Research, priority 2018, published 2021)", "target": "T1, recombinant human TopI (HTopI) (Homo sapiens, UniProt P11387)", "T1 sequence (P11387 1-765)": "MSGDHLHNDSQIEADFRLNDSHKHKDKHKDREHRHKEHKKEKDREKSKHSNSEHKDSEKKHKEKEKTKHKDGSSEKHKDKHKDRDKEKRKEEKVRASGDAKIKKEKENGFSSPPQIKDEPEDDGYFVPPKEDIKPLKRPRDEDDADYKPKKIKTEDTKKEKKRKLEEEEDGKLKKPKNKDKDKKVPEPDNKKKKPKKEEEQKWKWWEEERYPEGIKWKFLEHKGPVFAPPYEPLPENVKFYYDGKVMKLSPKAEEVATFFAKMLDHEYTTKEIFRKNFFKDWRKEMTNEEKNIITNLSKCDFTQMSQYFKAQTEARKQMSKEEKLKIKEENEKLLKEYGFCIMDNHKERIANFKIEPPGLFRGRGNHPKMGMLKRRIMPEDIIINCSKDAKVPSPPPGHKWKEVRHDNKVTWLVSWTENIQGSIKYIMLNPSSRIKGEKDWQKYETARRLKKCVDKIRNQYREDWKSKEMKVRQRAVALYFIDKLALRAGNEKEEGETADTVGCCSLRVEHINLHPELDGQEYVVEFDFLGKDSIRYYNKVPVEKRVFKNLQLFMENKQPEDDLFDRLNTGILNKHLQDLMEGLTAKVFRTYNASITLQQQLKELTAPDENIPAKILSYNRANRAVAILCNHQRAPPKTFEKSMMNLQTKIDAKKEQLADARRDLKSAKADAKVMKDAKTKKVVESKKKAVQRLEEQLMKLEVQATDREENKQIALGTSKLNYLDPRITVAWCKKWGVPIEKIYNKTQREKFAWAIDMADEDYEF", "experiment": "Gel based plasmid DNA relaxation assay with recombinant TopI (in vitro)", "format": "biochemical", "procedure": "Human ToPI Inhibition in Plasmid DNA Relaxation Assays with Recombinant TopI (In Vitro) or MCF7 Cell Lysates (Ex Vivo)\nRelaxation of supercoiled pBSSK(^+) DNA with recombinant human TopI (HTopI) at a molar ratio of 3:1 at 37° C. for 30 minutes was performed", "data": [{"smiles": "COc1ccc(-c2ccc3ncc(-c4nnco4)c(NCCCn4ccnc4)c3c2)cc1", "note": "[Compound 18, N-(3-(1H-imidazol-1-yl)propyl)-6-(4-methoxyphenyl)-3-(1,3,4-oxadiazol-2-yl)quinolin-4-amine]", "values": [{"measurement": "inhibition at 0.1 µM", "setting": "0.1 μM, recombinant TopI and compound added simultaneously", "value": "85 to 90", "unit": "%"}, {"measurement": "IC50", "setting": "read-out: IC50 of TopI inhibition", "value": 0.029, "unit": "µM"}]}]}
